This assay has as its system pathogen-free rats. Briefly: Goblet cell production in pathogen-free rats after tracheal instillation of TNFα and EGF-R ligands. The note with it: intratracheal instillation 200 ng. Format: in vivo, rat. The method, then:
Healthy rats. Rats were anesthetized with methohexital sodium (Brevital sodium, 50 mg/kg, i.p.; Eli Lilly & Co., Indianapolis, Ind.) and allowed to breathe spontaneously. To determine whether TNFα up-regulates EGF-R in airways, TNFα (200 ng, 100 μl) was instilled into the trachea and the animals were euthanized 24 h later. To examine whether EGF or TGFα induces goblet cells in airway epithelium, EGF (600 ng, 100 μl) or TGFα (rat synthetic TGFα, 250 ng, 100 μl; Sigma, St Louis, Mich.) was instilled into the trachea either alone or 24 h after the instillation of TNFα (200 ng, 100 μl), and the animals were euthanized 48 h later. In each study, sterile PBS (100 μl) was instilled into the trachea as control. […]
Cell analysis. We counted the total number of epithelial cells by counting epithelial cell nuclei over 2 mm of the basal lamina with an oil immersion objective lens (×1000 magnification). The linear length of the basal lamina under each analyzed region of epithelium was determined by tracing the contour of the digitized image of the basal lamina. […]
Quantification of goblet cell production. Goblet cell production, was determined by the volume density of Alcian blue/PAS-stained mucosubstances on the mucosal surface epithelium using a semi-automatic imaging system described elsewhere (Weber et al. (1984) Science 224:294-297). […]

Turning to “TNFα: recombinant human tumor necrosis factor alpha (Genzyme)”, the “EGF-R protein in tracheal epithelium” value was “induced EGF-R protein”.

The values are drawn from patent US7531500B2, “Preventing airway mucus production by administration of EGF-R antagonists” (The Regents of the University of California, priority 1998, dated 2009).
